Among the data in ChEMBL document CHEMBL1131013, “Synthesis and evaluation of analogues of the partial agonist 6-(propyloxy)-4-(methoxymethyl)-beta-carboline-3-carboxylic acid ethyl ester (6-PBC) and the full agonist 6-(benzyloxy)-4-(methoxymethyl)-beta-carboline-3-carboxylic acid ethyl ester (Zk 93423) at wild type and recombinant GABAA receptors” (J Med Chem, 1998) are Ki values, retold here.

The chains behind the UniProt entries cited, without tags or fusion partners.
UniProt Q16445, whole entry: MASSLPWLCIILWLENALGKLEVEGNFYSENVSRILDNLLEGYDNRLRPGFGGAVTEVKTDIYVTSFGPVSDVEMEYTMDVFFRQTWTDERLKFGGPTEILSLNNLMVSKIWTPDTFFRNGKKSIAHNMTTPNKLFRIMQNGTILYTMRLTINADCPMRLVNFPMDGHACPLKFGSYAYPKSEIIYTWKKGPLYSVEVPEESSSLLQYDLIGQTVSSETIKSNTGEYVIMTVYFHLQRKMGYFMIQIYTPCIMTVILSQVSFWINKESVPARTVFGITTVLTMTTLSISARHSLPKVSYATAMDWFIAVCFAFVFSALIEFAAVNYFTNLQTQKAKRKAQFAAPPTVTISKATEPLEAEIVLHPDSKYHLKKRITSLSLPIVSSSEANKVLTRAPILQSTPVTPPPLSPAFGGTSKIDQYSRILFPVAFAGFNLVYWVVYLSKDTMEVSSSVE

Experiment [1] addresses GABA-A receptor; alpha-6/beta-3/gamma-2 (Homo sapiens, UniProt P18507+P28472+Q16445). The experiment can be described thus: Binding affinity measured using LtK- cell membranes expressing Gamma-aminobutyric acid A receptor alpha-6-beta-3-gamma-2. In a few lines:
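Ltk- cells expressing human α6β3γ2, scraped into PBS and resuspended in 10 mM KH2PO4/100 mM KCl pH 7.4. 1 h at 4 °C to equilibrium, filtration, scintillation counting.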

Experiment [2] concerns the target T1, GABA-A receptor; alpha-5/beta-3/gamma-2 (Homo sapiens, UniProt P18507+P28472+P31644).
T1 sequence (P18507 whole entry): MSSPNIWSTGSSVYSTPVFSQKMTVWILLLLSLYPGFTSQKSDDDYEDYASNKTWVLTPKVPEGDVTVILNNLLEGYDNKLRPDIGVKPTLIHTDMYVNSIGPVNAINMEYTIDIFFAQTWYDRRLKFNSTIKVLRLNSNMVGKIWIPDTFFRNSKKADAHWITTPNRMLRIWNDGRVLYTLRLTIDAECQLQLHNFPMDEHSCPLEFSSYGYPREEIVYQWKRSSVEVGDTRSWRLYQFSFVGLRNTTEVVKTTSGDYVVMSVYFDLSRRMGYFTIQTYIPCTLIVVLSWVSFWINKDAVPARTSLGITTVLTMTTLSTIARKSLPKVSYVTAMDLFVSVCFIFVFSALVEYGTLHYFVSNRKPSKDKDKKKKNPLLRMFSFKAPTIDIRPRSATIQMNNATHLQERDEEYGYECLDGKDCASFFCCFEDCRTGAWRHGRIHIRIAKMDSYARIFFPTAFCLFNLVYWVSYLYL
T1 sequence (P28472 whole entry): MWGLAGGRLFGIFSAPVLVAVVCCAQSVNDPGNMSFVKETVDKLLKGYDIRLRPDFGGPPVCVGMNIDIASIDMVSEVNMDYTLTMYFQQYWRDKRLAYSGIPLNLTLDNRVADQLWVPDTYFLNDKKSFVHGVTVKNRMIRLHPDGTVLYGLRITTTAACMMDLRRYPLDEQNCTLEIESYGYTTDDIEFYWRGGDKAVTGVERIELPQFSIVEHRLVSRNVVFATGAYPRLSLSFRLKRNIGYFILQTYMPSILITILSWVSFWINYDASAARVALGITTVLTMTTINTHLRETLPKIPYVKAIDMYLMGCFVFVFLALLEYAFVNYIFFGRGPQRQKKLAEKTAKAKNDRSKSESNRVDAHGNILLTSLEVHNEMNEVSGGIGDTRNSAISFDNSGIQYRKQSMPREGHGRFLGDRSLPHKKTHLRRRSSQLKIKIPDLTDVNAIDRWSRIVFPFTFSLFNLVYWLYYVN
T1 sequence (P31644 whole entry): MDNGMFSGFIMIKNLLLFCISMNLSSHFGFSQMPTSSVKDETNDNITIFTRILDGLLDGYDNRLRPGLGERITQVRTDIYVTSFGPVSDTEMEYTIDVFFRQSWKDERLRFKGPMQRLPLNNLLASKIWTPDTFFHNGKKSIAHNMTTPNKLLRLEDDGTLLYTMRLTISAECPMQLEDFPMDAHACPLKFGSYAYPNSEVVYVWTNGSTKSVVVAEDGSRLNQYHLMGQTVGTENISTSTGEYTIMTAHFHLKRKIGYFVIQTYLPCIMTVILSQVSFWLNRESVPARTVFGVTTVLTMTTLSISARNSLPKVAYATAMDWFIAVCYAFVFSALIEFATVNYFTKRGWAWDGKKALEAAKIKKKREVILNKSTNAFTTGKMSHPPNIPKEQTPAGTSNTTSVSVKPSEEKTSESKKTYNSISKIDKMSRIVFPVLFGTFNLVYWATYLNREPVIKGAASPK
As to the kind of experiment: Binding affinity measured using LtK- cell membranes expressing Gamma-aminobutyric acid A receptor alpha-5-beta-3-gamma-2.

Experiment [3] deals with T2, GABA-A receptor; alpha-3/beta-3/gamma-2 (Homo sapiens, UniProt P18507+P28472+P34903).
T2 sequence (P18507 whole entry): T1 sequence (P18507 whole entry)
T2 sequence (P28472 whole entry): T1 sequence (P28472 whole entry)
T2 sequence (P34903 whole entry): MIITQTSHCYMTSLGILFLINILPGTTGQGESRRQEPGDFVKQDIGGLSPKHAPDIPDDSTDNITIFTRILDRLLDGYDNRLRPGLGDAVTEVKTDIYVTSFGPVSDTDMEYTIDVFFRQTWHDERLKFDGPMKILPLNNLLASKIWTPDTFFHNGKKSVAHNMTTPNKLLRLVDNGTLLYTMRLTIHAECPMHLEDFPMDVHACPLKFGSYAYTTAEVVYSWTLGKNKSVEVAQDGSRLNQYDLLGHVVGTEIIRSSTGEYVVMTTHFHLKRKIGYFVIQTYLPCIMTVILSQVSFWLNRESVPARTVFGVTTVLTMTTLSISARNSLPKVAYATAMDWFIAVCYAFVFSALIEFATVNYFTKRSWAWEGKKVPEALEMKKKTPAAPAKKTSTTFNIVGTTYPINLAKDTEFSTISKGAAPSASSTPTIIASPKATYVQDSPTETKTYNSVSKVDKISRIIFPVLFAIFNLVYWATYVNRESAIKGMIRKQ
As to the kind of experiment: Binding affinity measured using LtK- cell membranes expressing GABA alpha-3-beta-3-gamma-2 receptor.

Experiment [4] addresses T3, GABA-A receptor; alpha-2/beta-3/gamma-2 (Homo sapiens, UniProt P18507+P28472+P47869).
T3 sequence (P18507 whole entry): T1 sequence (P18507 whole entry)
T3 sequence (P28472 whole entry): T1 sequence (P28472 whole entry)
T3 sequence (P47869 whole entry): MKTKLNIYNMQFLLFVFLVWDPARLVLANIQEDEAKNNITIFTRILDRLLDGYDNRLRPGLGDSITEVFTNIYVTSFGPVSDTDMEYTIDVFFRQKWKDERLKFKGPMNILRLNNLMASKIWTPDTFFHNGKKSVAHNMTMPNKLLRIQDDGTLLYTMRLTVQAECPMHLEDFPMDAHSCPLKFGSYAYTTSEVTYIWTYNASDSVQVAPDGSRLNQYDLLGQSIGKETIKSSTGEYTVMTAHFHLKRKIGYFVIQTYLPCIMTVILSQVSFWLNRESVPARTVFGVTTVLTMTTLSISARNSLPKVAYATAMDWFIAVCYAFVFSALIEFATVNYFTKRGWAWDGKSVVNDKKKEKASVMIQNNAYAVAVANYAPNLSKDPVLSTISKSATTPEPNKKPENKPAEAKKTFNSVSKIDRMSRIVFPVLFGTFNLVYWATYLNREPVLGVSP
As to the kind of experiment: Binding affinity measured using LtK- cell membranes expressing GABA alpha-2-beta-3-gamma-2 receptor.

Structures are written as SMILES.

Usually Ki stands for a measure of affinity in units of concentration, obtained from inhibition or displacement. Turning to `CCOC(=O)c1cc2c(cn1)[nH]c1ccccc12`, the Ki in experiment [1] is more than 1000 nM; in experiment [2], 26.8 nM; in experiment [3], 5.7 nM; in experiment [4], 4.9 nM.
